Assay: In vitro mouse plasma stability of antibody-CDN conjugates (payload CDN 2.2 retention on mAb by LC-MS)
Type: in vitro ADME
Settings: monoclonal antibody: anti Her2 mA2, 37°C, retention of CDN 2.2 on mAb

## (2S)-N-((2S)-1-((4-((((6R,8R,9S,13aR,15R,16R,16aR,17R)-15-(6-amino-9H-purin-9-yl)-16,17-difluoro-3-mercapto-3,11-dioxido-8-(6-oxo-1,6-dihydro-9H-purin-9-yl)decahydro-6,9-methanofuro[3,2-m][1,3,6,9,12]pentaoxa[2,10]diphosphacyclopentadecin-11-yl)thio)methyl)phenyl)amino)-1-oxopropan-2-yl)-2-(2-(2,5-dioxo-2,5-dihydro-1H-pyrrol-1-yl)acetamido)-3-methylbutanamide [Compound 3.19, reference compound]
  Mouse plasma T ½: 96 h
